# Experimental data: patent US4396543A
# Assay: toxicity test, LD50
# Conditions: mouse, in vivo, iv; administered intravenously; read-out: LD50 (mg/kg) in Mice
row,SMILES,LD50
1,CCCCCCCCCCCCCC(=O)N[C@@H](Cc1ccccc1)C(=O)N[C@@H](Cc1c[nH]c2ccccc12)C(=O)N[C@H](CC(N)=O)C(=O)N[C@@H](CC(=O)O)C(=O)N[C@@H]1C(=O)NCC(=O)N[C@@H](CCCN)C(=O)N[C@@H](CC(=O)O)C(=O)N[C@H](C)C(=O)N[C@@H](CC(=O)O)C(=O)NCC(=O)N[C@H](CO)C(=O)N[C@@H]([C@H](C)CC(=O)O)C(=O)N[C@@H](CC(=O)c2ccccc2N)C(=O)O[C@@H]1C [Compound 22],225 mg/kg
2,CCCCCCCCCCCCC(=O)N[C@@H](Cc1ccccc1)C(=O)N[C@@H](Cc1c[nH]c2ccccc12)C(=O)N[C@H](CC(N)=O)C(=O)N[C@@H](CC(=O)O)C(=O)N[C@@H]1C(=O)NCC(=O)N[C@@H](CCCN)C(=O)N[C@@H](CC(=O)O)C(=O)N[C@H](C)C(=O)N[C@@H](CC(=O)O)C(=O)NCC(=O)N[C@H](CO)C(=O)N[C@@H]([C@H](C)CC(=O)O)C(=O)N[C@@H](CC(=O)c2ccccc2N)C(=O)O[C@@H]1C [Compound 21],225 mg/kg
3,CCCCCCCCCCC(=O)N[C@@H](Cc1ccccc1)C(=O)NCCC[C@@H]1NC(=O)CNC(=O)[C@@H](NC(=O)[C@H](CC(=O)O)NC(=O)[C@@H](CC(N)=O)NC(=O)[C@@H](N)Cc2c[nH]c3ccccc23)[C@@H](C)OC(=O)[C@H](CC(=O)c2ccccc2N)NC(=O)[C@H]([C@H](C)CC(=O)O)NC(=O)[C@@H](CO)NC(=O)CNC(=O)[C@H](CC(=O)O)NC(=O)[C@@H](C)NC(=O)[C@H](CC(=O)O)NC1=O [Compound 26],225 mg/kg
